Measured values reported in ChEMBL document CHEMBL3112502, “The insulin secretory action of novel polycyclic guanidines: discovery through open innovation phenotypic screening, and exploration of structure-activity relationships” (Bioorg Med Chem Lett, 2014).

Test system: INS-1E
Experiment: Stimulation of insulin secretion in rat INS-1E cells after 1 hr by alphaLISA assay in presence of 0.1 mM glucose
Assay type: functional, cell-based

`N=C1N[C@H](c2ccccc2)C[C@H]2CC[C@H](CCc3ccccc3)N12` was tested, and the Activity was “inactive”.

Activity calls are given as the source filed them. The calls are words filed in the database; no cut-off is given here.
